Measurements published in patent publication US12384821B2, “Antimicrobial peptides and compositions, methods, articles and kits relating thereto” (George Mason University, priority 2020, dated 2025).
≈ marks a conversion by molar mass, not a printed value.

Key:
[1] = Circular dichroism spectroscopy, percent alpha-helicity; type: physicochemical; settings: 100 μg/mL peptide
Experimental: Circular dichroism (CD) analysis of the peptides was performed using a Jasco J-1500 spectropolarimeter. 100 μg/mL of peptide was used in each experiment. Samples were allowed to equilibrate for 5 min prior to data collection at 25° C. in a 1 mm path length cuvette. Spectra were collected from 190 to 260 nm with at 20 nm/min, a data integration time of 4 seconds and a 1 nm bandwidth. Data shown represents the average of four spectra. The peptides were analyzed in 10 mM sodium phosphate buffer (6.12 mM sodium monohydrogen phosphate heptahydrate; 3.92 mM monosodium phosphate anhydrous; pH 7.4), 50% (v/v) trifluoroethanol (TFE) in phosphate buffer, or 60 mM sodium dodecyl sulfate (SDS) in phosphate buffer. Percent contribution to secondary structure was measured using methods described in Raussens, V. et al. (Analytical Biochemistry, 319(1):114-21 (2003)).
The secondary structures of many CAMPs are disordered in the absence of anionic membranes or micelles, but adopt more defined secondary structures in their presence. To detect and measure any changes that the DRGN peptides may undergo based on environment, we studied their structural properties in 10 mM phosphate buffer as a negative control, 60 mM SDS in 10 mM phosphate buffer and 50% 2,2,2-Trifluoroethanol (TFE) in 10 mM phosphate buffer. Phosphate buffer without SDS or TFE provided an environment for studying the conformational properties of the peptides structure in the absence a micelle or membrane. Sodium dodecyl sulfate is an anionic surfactant that can form micelles in aqueous buffers mimicking bacterial membranes and simulating the effects an anionic membrane can have on the conformations of antimicrobial peptides. Addition of trifluoroethanol to aqueous buffer promotes increased structure, usually helicity, in peptides with suitable sequences.

[2] = test system: carbapenem-resistant K. pneumoniae strain (ATCC BAA-1705); type: cell-based, Klebsiella pneumoniae; settings: CLSI protocol in CA-MHB
Experimental: Klebsiella pneumoniae ATCC BAA-1705 was purchased from the American Type Culture Collection (Manassas, VA) and grown in Cation-Adjusted Mueller Hinton Broth. Bacteria were aliquoted and frozen at −80° C. with 20% glycerol and enumerated via serial dilution and plating prior to experimentation.
The minimum inhibitory concentration (MIC) of the peptides was determined according to Clinical & Laboratory Standards Institute (CLSJ) guidelines. Bacteria were grown overnight on Cation-adjusted Mueller Hinton Agar (BD 211438, CAMHA) at 37° C. Assays were performed in Cation-adjusted Mueller Hinton Broth (BD 212322, CAMHB) in polypropylene 96 well plates (Corning 3879). Each experiment was performed with three replicates at least three times.

CC[C@H](C)[C@H](NC(=O)[C@@H](NC(=O)[C@H](CCCCN)NC(=O)[C@@H]1CCCN1C(=O)[C@H](CCCCN)NC(=O)[C@H](CCCCN)NC(=O)[C@H](Cc1ccccc1)NC(=O)[C@H](Cc1ccccc1)NC(=O)[C@H](CCCCN)NC(=O)[C@H](CCCCN)NC(=O)[C@H](C)NC(=O)[C@H](CCCNC(=N)N)NC(=O)[C@H](CCCCN)NC(=O)[C@H](CCCCN)NC(=O)[C@@H](NC(=O)[C@H](CO)NC(=O)[C@H](CC(N)=O)NC(=O)[C@H](CCCCN)NC(=O)[C@H](CC(C)C)NC(=O)[C@H](CCCCN)NC(=O)[C@H](CCCCN)NC(=O)[C@H](Cc1ccccc1)NC(=O)[C@H](Cc1ccccc1)NC(=O)[C@H](CCCCN)NC(=O)[C@H](CCCCN)NC(=O)[C@H](Cc1ccccc1)NC(=O)[C@H](CCCNC(=N)N)NC(=O)[C@@H](N)CCCCN)C(C)C)C(C)C)C(=O)NCC(=O)N[C@H](C(=O)N[C@H](C(=O)N[C@@H](Cc1ccccc1)C(=O)N1CCC[C@H]1C(=O)N[C@@H](Cc1ccccc1)C(=O)O)[C@@H](C)O)C(C)C [NA-CATH, reference compound]
Percent alpha-helicity, 10 mM phosphate buffer ([1]; 10 mM phosphate buffer): 3.4%
Percent alpha-helicity, SDS ([1]; 60 mM SDS in 10 mM phosphate buffer): 55.6%
Percent alpha-helicity, TFE ([1]; 50% TFE in 10 mM phosphate buffer): 63.5%
MIC [2]: 8 µg/mL (≈ 1.92 µM)
